Yeast mating assay B: variants of the scFv Ab-14

The target is the same throughout: PDVDLGDISGINAS, from the HR2 region of SARS-CoV-2 spike.

The variants keep the heavy chain, the linker and the frameworks of Ab-14 (scFv order VH, a (GGGGS)3 linker, VL).
VH: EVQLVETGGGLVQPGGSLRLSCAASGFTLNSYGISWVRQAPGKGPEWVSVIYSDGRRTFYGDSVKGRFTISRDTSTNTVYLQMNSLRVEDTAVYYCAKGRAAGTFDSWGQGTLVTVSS
VL: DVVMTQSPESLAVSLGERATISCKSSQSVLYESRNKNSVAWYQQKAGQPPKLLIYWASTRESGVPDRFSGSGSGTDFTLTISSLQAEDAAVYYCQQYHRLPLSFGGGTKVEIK

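The parent was found by panning a naive human phage display library on the peptide. These sequences belong to a second round, designed from the earlier measurements on random variants of the parent. Their group label is 14L_En_Gen (En: ensemble of fine-tuned language models; Gen: genetic algorithm). In AlphaSeq, yeast of one mating type display the scFv and yeast of the other type display the target. After mating in shaken culture at 30 °C for 16 h, diploids were selected and their barcode pairs sequenced. Read counts were normalised to the haploid input and turned into Kd by a linear fit to BCL2-family pairs of known affinity, for each replicate. Mating was done six times.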

Variants are written as CDR1, CDR2 and CDR3 of the light chain (limits as in the source). Parent: KSSQSVLYESRNKNSVA, WASTRES, QQYHRLPLS. The read-out is the apparent dissociation constant on a log10 scale (nM): the lower, the stronger. Replicates are averaged; those with no signal do not enter the mean. A pair that was not seen in that replicate is written "nd"; this usually means weak binding, but a binder can also be missed. Nonspecific signal, from three strains lacking the peptide, appeared in 4% of pairings of all light chain designs, centred on 2.64 (5% of these signals below 1.59); values are not corrected for it. Also given: how often the same scFv was detected with the empty control strains, with their mean in brackets. Of ten entries with the parent sequence, four were seen in most replicates (averages 0.34 to 2.37), three in one and three in none, so single entries are noisy. The authors' rule: three or more of the six replicates give a measured affinity, fewer mean a poor binder. The range of this assay differs from that of the first round, and the authors advise against merging the two.

CDR-L1	CDR-L2	CDR-L3	log10 Kd (nM) by replicate	mean, log10 nM	signal with controls
MVTQMAMTGMMNKRSVA	NASTREN	QQYHRLPLI	0.71 0.51 0.27 0.25 0.24 0.45	0.40	1 of 18 (2.78)
KLTSITGTEKVHGNSVA	EMATREK	QQYNRLPLA	0.32 0.12 0.05 0.10 0.23 0.33	0.19	1 of 18 (2.73)
KIGMTLNQLMIKKNNVA	DLVERAN	QQYHRLPLS	-0.02 0.16 -0.44 -0.55 -0.17 -0.01	-0.17	0 of 18
HFGLATMLEEYVRNSVA	NNSTREE	QQYDRLPLS	nd 3.59 nd 2.79 4.41 nd	3.60	2 of 18 (2.87)
MLSDVTNGMARKHNSVA	DNSTREK	QQYDRLPLS	1.37 1.52 2.41 1.26 nd 1.48	1.61	0 of 18
KVSEFMKGLMMRTDSIA	DNVTRYN	QQYDRLPLS	1.71 0.91 0.96 0.49 0.81 1.06	0.99	1 of 18 (2.88)
MLGDVAHGLSRKENSVA	DNDQRNS	QQYDRLPLS	1.92 1.73 1.40 1.87 1.63 2.07	1.77	2 of 18 (2.84)
IVSQLMLWGHLAKNSIA	EAVTRYN	QQYDRLPLM	nd nd nd nd nd nd	nd	0 of 18
MLSSVLHMLGVKQNSIA	DLVLRAN	QQYHRLPLM	nd nd nd nd nd nd	nd	0 of 18
MLSQMTGLGMKASNSVA	QASMRFD	QQYHRLPLI	0.75 0.67 1.01 0.15 0.63 1.00	0.70	0 of 18
TISQLHNMGTFAINSVA	QAEIRNA	QQYDRLPLI	0.89 0.88 1.31 1.04 1.33 0.87	1.05	1 of 18 (2.67)
HITMGMYVSGRYKSNIA	QAETREK	QQYDRLPLM	0.82 0.33 0.76 2.12 0.62 0.83	0.91	0 of 18
HLGLATMLESSVRNSVA	NNSTRED	QQYDRLPLS	1.55 1.72 1.21 1.16 1.37 1.50	1.42	0 of 18
KLTSITGTEKVTGQNVA	EMETREN	QQYNRLPLS	0.15 -0.46 -0.07 0.30 0.09 0.19	0.03	1 of 18 (1.71)
MISQIYNMGQFAINSVA	QASQRNA	QQYDRLPLI	1.77 1.86 1.80 1.61 1.74 1.46	1.71	1 of 18 (3.10)
MISQLWNMGTFAINSVA	QATIRNS	QQYDRLPLM	2.59 2.54 1.34 2.48 2.39 2.62	2.32	0 of 18
KLTQTMRFEQKKKQNIA	EVSTRSQ	QQYVRLPLA	1.47 1.39 1.76 0.95 1.23 1.28	1.35	1 of 18 (2.76)
TIGGTLMYGVMNRSNVA	EVSERLN	QQYDRLPLM	1.91 2.97 3.45 1.76 2.60 nd	2.54	2 of 18 (2.43)
KLSALTEMEHKNRNSVA	ELVTRMS	QQYNRLPLS	nd nd 2.24 nd 2.95 nd	2.60	2 of 18 (2.52)
MIHEMMGLVSHKQSSIA	DNSTRYD	QQYDRLPLS	0.86 0.47 1.84 nd 1.24 0.81	1.04	0 of 18
KISQMVRVGSTHSNSIA	EEATRSD	QQYHRLPLS	0.82 0.37 0.35 0.56 0.48 0.60	0.53	2 of 18 (3.96)
HITYGMMVHGRHSKSIA	QAETRAK	QQYDRLPLS	nd nd 1.63 nd 2.57 1.72	1.97	1 of 18 (1.81)
HMSMLTLQGMRHRNSVA	QMTTREN	QQYDRLPLS	0.60 0.80 0.98 0.72 1.49 0.78	0.89	0 of 18
KISQMVRVGSTHKNSIA	EEAKRAD	QQYHRLPLA	nd nd nd nd nd nd	nd	0 of 18
TIGQTLMYGMRNRSNVA	EVSQRLN	QQYDRLPLI	1.71 1.46 1.23 2.36 1.64 1.80	1.70	1 of 18 (2.64)
KVYQGINTHLGAHNSIA	QEETRLQ	QQYAHLPLS	1.12 1.15 0.95 1.02 1.27 1.36	1.14	1 of 18 (2.17)
QIYQAMHTLSQVKDNVA	DVNERGQ	QQYFRLPLS	0.08 0.06 -0.15 -0.08 0.02 0.17	0.02	0 of 18
TISQMSQLFSQTINNVA	EVSTRLN	QQYDRLPLV	0.73 0.90 0.67 0.59 0.67 0.63	0.70	0 of 18
MLSEVLHMLGVQKNSIA	DLVLRAN	QQYHRLPLA	nd nd nd nd nd nd	nd	0 of 18
KIGMTLNMMMHKKNNVA	DLVTREN	QQYHRLPLS	0.40 0.23 0.16 0.24 0.45 0.41	0.32	2 of 18 (2.31)
MISQLYNMGTFAINSVA	QATIRNS	QQYDRLPLA	1.74 2.04 1.83 1.90 1.78 nd	1.86	2 of 18 (1.83)
KIGMTLNQLMHQKQNVA	DLVMREN	QQYFRLPLS	0.31 1.36 0.27 1.01 1.89 0.60	0.91	0 of 18
KVSAFMRGLMMRTDSIA	DNETRNS	QQYDRLPLS	1.38 0.97 1.10 0.83 0.93 1.36	1.09	1 of 18 (3.44)
KLSSITGHMSMAKNNVA	EMVTREN	QQYNRLPLS	0.97 0.35 0.81 0.67 0.82 0.46	0.68	0 of 18
KIGMTLNQMMTKKNNVA	DLVERAN	QQYHRLPLS	-0.27 -0.20 -0.41 -0.35 -0.28 0.15	-0.23	0 of 18

Extract of 4 entries:

CDR-L1	CDR-L2	CDR-L3	log10 Kd (nM) by replicate	mean, log10 nM	signal with controls
KLTSITGTEKVTGQNVA	EMETREN	QQYNRLPLS	0.15 -0.46 -0.07 0.30 0.09 0.19	0.03	1 of 18 (1.71)
KISQMVRVGSTHSNSIA	EEATRSD	QQYHRLPLS	0.82 0.37 0.35 0.56 0.48 0.60	0.53	2 of 18 (3.96)
MLSEVLHMLGVQKNSIA	DLVLRAN	QQYHRLPLA	nd nd nd nd nd nd	nd	0 of 18
HITMGMYVSGRYKSNIA	QAETREK	QQYDRLPLM	0.82 0.33 0.76 2.12 0.62 0.83	0.91	0 of 18

Data: MIT Lincoln Laboratory AlphaSeq set, Li et al. 2023, doi:10.1038/s41467-023-39022-2, as distributed in FLAb.